The results in this text go back to ChEMBL document CHEMBL2029223, “Identification of a phenylacylsulfonamide series of dual Bcl-2/Bcl-xL antagonists” (Bioorg Med Chem Lett, 2012).

Chains of the proteins cited; added tags and fusions are not shown.
UniProt Q07817, whole entry: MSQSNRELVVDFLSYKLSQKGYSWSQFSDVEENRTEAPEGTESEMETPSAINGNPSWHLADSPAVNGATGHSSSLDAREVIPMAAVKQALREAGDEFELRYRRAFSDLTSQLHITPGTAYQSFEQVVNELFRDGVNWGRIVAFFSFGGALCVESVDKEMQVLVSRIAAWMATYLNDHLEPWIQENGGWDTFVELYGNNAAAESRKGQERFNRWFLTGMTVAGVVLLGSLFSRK
UniProt P10415, whole entry: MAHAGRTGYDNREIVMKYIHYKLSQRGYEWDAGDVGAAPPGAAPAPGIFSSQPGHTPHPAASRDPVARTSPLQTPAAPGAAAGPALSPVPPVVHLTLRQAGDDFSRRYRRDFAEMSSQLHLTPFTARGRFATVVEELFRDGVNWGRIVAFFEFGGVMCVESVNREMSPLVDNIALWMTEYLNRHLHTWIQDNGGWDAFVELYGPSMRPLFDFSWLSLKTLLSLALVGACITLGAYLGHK

The IC50 is the concentration at which inhibition is half-maximal.

Assay [1] deals with Bcl-2-like protein 1 (Homo sapiens, UniProt Q07817). Put plainly: Inhibition of Bcl-XL using fluoresceinated 18-mer Bim as substrate after 60 mins by FRET analysis.
In assay [2] the target is Apoptosis regulator Bcl-2 (Homo sapiens, UniProt P10415). Briefly: Inhibition in GST-tagged Bcl2 using [FAM]-IWIAQELRRIGDEFNAYY-NH2 as substrate after 60 mins by fluorescence polarization assay. A general note: Fluorescence polarisation rises when a labelled molecule tumbles more slowly, as on binding a larger partner.

For the compound `CCCCN(CCCC)C(=O)c1nn(-c2ccc(C(=O)NS(=O)(=O)c3ccc4cccc(I)c4c3)cc2C(=O)N2CCc3ccccc3C2)c(C)c1Cl`, the IC50 in assay [1] is 37 nM; in assay [2], 35 nM.
As to `CCCCN(CCCC)C(=O)c1nn(-c2ccc(C(=O)NS(=O)(=O)c3ccc4ccccc4c3)cc2C(=O)N2Cc3ccccc3C[C@H]2CO)c(C)c1Cl`, in assay [1], it took 12 nM to reach half-maximal inhibition (IC50).
